Only a part is listed here, and it is no random draw. Active and inactive are the calls of the source.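 The calls were made as follows: active = mean Tm shift, scaled 0 neutral to 100 positive control, at about 1.3% or above, every replicate too (limit read from the data); inconclusive = no clear call, values can overlap the other calls; inactive = the rest.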

Protein sequences, listed by entry. Tags and fused reporters are not part of them.
UniProt Q9HCT0, whole entry: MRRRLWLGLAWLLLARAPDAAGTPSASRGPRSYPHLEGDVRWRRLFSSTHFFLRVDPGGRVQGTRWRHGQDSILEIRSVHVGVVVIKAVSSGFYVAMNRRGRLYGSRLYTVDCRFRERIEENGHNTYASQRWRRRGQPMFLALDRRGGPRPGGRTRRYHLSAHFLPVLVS

For the assay, the target named is Fibroblast growth factor 22 (Homo sapiens) (UniProt Q9HCT0). The assay can be described thus: binders of human FGF22 protein, primary screen, FGF22 synaptogenesis inhibitor project, biophysical, thermal shift, single point (AID 651658). As to conditions: recombinant FGF22 thermal shift, SYPRO orange fluorescence; at 9.99 µM; stronger effect = higher value; percent of sucrose octasulfate shift, DMSO zero.
Turning to `NC(=O)Nc1ccc([As](=O)(O)O)cc1`, the activity (Tm shift, normalised) was inactive: 0.662%.
